PubChem BioAssay AID2291 (The Scripps Research Institute Molecular Screening Center, 2010)
This is a selection; strong and weak results do not stand in their true shares. Activity calls are given as the source filed them. Cut-off read from the data, not from the text of the source: active = inhibition above about 30%; inactive = the rest.

The chains behind the UniProt entries cited, without tags or fusion partners. Where a name states a change or a piece, a line headed by the entry shows the natural chain unless it says otherwise.
UniProt Q9Y570: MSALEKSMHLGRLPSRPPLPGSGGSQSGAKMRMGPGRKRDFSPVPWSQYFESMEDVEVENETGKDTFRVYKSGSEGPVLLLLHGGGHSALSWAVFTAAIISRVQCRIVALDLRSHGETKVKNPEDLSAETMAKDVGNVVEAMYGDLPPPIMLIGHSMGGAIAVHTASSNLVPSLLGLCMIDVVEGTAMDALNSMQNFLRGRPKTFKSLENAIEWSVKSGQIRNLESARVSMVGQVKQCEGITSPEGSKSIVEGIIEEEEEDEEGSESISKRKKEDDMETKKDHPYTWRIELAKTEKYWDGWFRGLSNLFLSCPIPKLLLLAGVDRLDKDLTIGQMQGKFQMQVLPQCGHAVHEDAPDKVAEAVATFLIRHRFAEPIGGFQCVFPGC

These molecules were tested against Protein phosphatase methylesterase 1 (Homo sapiens) (UniProt Q9Y570) (assay: Maybridge compound blocking human PME-1 (AID 2291)). Settings: recombinant PME-1, FP-Rh probe fluorescence polarization; at 9 µM; hits give high values.

Q: For `O=C(OC1CN2CCC1CC2)c1cccc([N+](=O)[O-])c1` (configuration not stated), which inhibition is on record?
A: inactive: -1.03%

Q: `CCOC(=O)/C(=N/Nc1ccc([N+](=O)[O-])cc1)N1CC1` was tested. Which inhibition did it give?
A: inactive: 6.59%
